Test results from patent publication US10647719B2, “Bicyclic compounds as dual ATX/CA inhibitors” (Hoffmann-La Roche Inc., priority 2015, dated 2020).

Molecular target: human ATX (Homo sapiens (Human), UniProt Q13822)
Test: Human ATX enzyme inhibition assay (fluorescence quenching, MR121 substrate)
Assay type: biochemical
Conditions: human His-tagged ATX 30 nM, MR121 substrate 1 μM, 30° C.
Method: Human ATX Enzyme Inhibition Assay
ATX inhibition was measured by a fluorescence quenching assay using a specifically labeled substrate analogue (MR121 substrate). To obtain this MR121 substrate, BOC and TBS protected 6-amino-hexanoic acid (R)-3-({2-[3-(2-{2-[2-(2-amino-ethoxy)-ethoxy]-ethoxy}-ethoxy)-propionylamino]-ethoxy}-hydroxy-phosphoryloxy)-2-hydroxy-propyl ester (Ferguson et al., Org Lett 2006, 8 (10), 2023) was labeled with MR121 fluorophore (CAS 185308-24-1, 1-(3-carboxypropyl)-11-ethyl-1,2,3,4,8,9,10,11-octahydro-dipyrido[3,2-b:2′,3′-i]phenoxazin-13-ium) on the free amine of the ethanolamine side and then, after deprotection, subsequently with tryptophan on the side of the aminohexanoic acid.
Assay working solutions were made as follows:
Assay buffer (50 mM Tris-HCl, 140 mM NaCl, 5 mM KCl, 1 mM CaCl2, 1 mM MgCl2, 0.01% Triton-X-100, pH 8.0;
ATX solution: ATX (human His-tagged) stock solution (1.08 mg/mL in 20 mM bicine, pH 8.5, 0.15 M NaCl, 10% glycerol, 0.3% CHAPS, 0.02% NaN3), diluted to 1.4-2.5× final concentration in assay buffer;
MR121 substrate solution: MR121 substrate stock solution (800 μM MR121 substrate in DMSO), diluted to 2-5× final concentration in assay buffer.
Test compounds (10 mM stock in DMSO, 8 μL) were obtained in 384 well sample plates (Corning Costar #3655) and diluted with 8 μL DMSO. […]

Compound | IC50 [nM]
CC(C)(C)C(=O)Nc1cc(C#N)cnc1COC(=O)N1CC2=C(C1)CN(C(=O)c1ccc(S(N)(=O)=O)cc1F)C2 [Example 1.24, [5-cyano-3-(2,2-dimethylpropanoylamino)pyridin-2-yl]methyl 2-(2-fluoro-4-sulfamoylbenzoyl)-1,3,4,6-tetrahydropyrrolo[3,4-c]pyrrole-5-carboxylate] | 3
CC(C)(C)C(=O)Nc1cc(C#N)cnc1COC(=O)N1CC2=C(C1)CN(C(=O)c1c(F)cc(S(N)(=O)=O)cc1F)C2 [Example 1.25, [5-cyano-3-(2,2-dimethylpropanoylamino)pyridin-2-yl]methyl 2-(2,6-difluoro-4-sulfamoylbenzoyl)-1,3,4,6-tetrahydropyrrolo[3,4-c]pyrrole-5-carboxylate] | 3
